The species named for data set [1] is Homo sapiens. The data set is described as follows: Selectivity ratio of IC50 for plasmin (unknown origin) to IC50 for human kidney uPA.
For data set [2], the species on record is Homo sapiens. The data set is described as follows: Selectivity ratio of IC50 for activated protein C (unknown origin) to IC50 for human kidney uPA.
The species named for data set [3] is Homo sapiens. Kind of data set: Selectivity ratio of IC50 for factor 10a (unknown origin) to IC50 for human kidney uPA.
Data set [4] is filed under the species Homo sapiens. The data set is described as follows: Selectivity ratio of IC50 for thrombin (unknown origin) to IC50 for human kidney uPA.
For data set [5], the species on record is Homo sapiens. Kind of data set: Selectivity ratio of IC50 for tPA (unknown origin) to IC50 for human kidney uPA.
The species entered for data set [6] is Homo sapiens. Kind of data set: Selectivity ratio of IC50 for factor 11a (unknown origin) to IC50 for human kidney uPA.
The species entered for data set [7] is Homo sapiens. Kind of data set: Selectivity ratio of IC50 for trypsin (unknown origin) to IC50 for human kidney uPA.
For data set [8], the species on record is Homo sapiens. The data set is described as follows: Selectivity ratio of IC50 for human plasma kallikrein to IC50 for human kidney uPA.
The subject of the next data set is Rattus norvegicus. The data set is described as follows: Antikaliuretic effect in Sprague-Dawley rat assessed as acetazolamide-induced Na+/K+ ratio at 1.5 mg/kg, iv measured after 6 hrs post dose. The format is ADME, organism-based. The settings on record: in vivo.

Regarding `N=C(N)NC(=O)c1nc(-c2cc3ccccc3o2)c(N2CCCCCC2)nc1N`, the Ratio IC50 in the data set listed under Homo sapiens [1], in the data set filed under Homo sapiens [2], in the data set listed under Homo sapiens [3], in the data set filed under Homo sapiens [4], in the data set listed under Homo sapiens [5] and in the data set listed under Homo sapiens [6] was 20 to 100 throughout. Further, the Ratio IC50 in the data set listed under Homo sapiens [7] and in the data set listed under Homo sapiens [8] was 20 to 100 in each case. Moreover, the Ratio in the data set with Rattus norvegicus was in the range of 2.44 to 2.68.

The values above are taken from ChEMBL document CHEMBL4196166 (J Med Chem, 2018).
